Measured values published in ChEMBL document CHEMBL1124481, “2-Haloaporphines as potent dopamine agonists” (J Med Chem, 1989).

System: D(2) dopamine receptor (Sus scrofa)
Test: Proportion of high affinity state of Dopamine receptor D2 measured by compound ability to displace [3H]spiperone from porcine anterior pituitary membranes

Structure (SMILES): CN1CCc2cc(F)cc3c2[C@H]1Cc1ccc(O)c(O)c1-3
- D-2: 68%
